From patent US8541572B2
Like-named read-outs stand apart in the source and are kept apart here.

The chains behind the UniProt entries cited, without tags or fusion partners. Residues count along the entry.
UniProt P78536, 215-477 S266A/N452Q: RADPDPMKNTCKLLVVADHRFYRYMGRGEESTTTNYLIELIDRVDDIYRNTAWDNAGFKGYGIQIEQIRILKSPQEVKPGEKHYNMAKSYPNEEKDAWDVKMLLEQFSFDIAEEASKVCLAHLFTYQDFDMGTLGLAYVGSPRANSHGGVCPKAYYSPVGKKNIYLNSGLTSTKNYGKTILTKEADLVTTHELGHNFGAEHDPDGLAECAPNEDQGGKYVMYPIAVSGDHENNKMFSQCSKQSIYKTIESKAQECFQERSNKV

Molecular target: recombinant human TACE catalytic domain (rhTACEc) (Homo sapiens (Human), UniProt P78536, N452Q/S266A)
Experiment: TACE kinetic FRET assay (cleavage of internally quenched peptide substrate TNF-FRET 2), Ki
[1] = recombinant human TACE catalytic domain, FRET assay

SMILES | Ki [1] [nM] | other results
CCN1CCN(C(C)c2ccc(C#C[C@]3(CN4Cc5ccc(OC)c(F)c5C4=O)NC(=O)NC3=O)cc2)CC1 (some centres unmarked) [Compound 984] | 0.509 | 
COc1ccc2c(c1)C(=O)N(C[C@@]1(C#Cc3ccc(C(=NO)N4CCN(c5ccccc5)CC4)cc3)NC(=O)NC1=O)C2 [Compound 928] |  | Ki: 0.15 nM
COc1ccc2c(c1F)C(=O)N(C[C@@]1(C#Cc3ccc(CN4CCOCC4)nc3)NC(=O)NC1=O)C2 [Compound 965] | 0.437 | 
CCN1CCN(C(=NO)c2ccc(C#C[C@]3(CN4Cc5ccc(OC)cc5C4=O)NC(=O)NC3=O)cc2)CC1 [Compound 911] |  | Ki: 0.16 nM
COc1ccc2c(c1)C(=O)N(C[C@@]1(C#Cc3cccc(C(=NO)N4CCN(C)CC4)c3)NC(=O)NC1=O)C2 [Compound 915] |  | Ki: 0.24 nM
COC(=O)c1scc(-c2ccc(C#C[C@]3(CN4Cc5ccc(OC)cc5C4=O)NC(=O)NC3=O)cc2)c1O [Compound 1305] |  | Ki: 1.71 nM
COc1ccc2c(c1)C(=O)N(C[C@]1(C#Cc3cnc(N)c(C(=O)O)c3)NC(=O)NC1=O)C2 [Compound 903] |  | Ki (TACE): 501 nM
COc1ccc2c(c1)C(=O)N(C[C@@]1(C#Cc3cccnc3-c3c(C)nn(C)c3C)NC(=O)NC1=O)C2 [Compound 2264] |  | Ki (TACE): 0.22 nM
COc1ccc2c(c1)C(=O)N(C[C@@]1(C#Cc3ccc4c(c3)c(N)nn4CCN(C)C)NC(=O)NC1=O)C2 [Compound 705] | 0.521 | 
COc1ccc2c(c1)C(=O)N(C[C@@]1(C#Cc3ccc(C(=NO)N4CCCN(C)CC4)cc3)NC(=O)NC1=O)C2 [Compound 913] |  | Ki (TACE): 0.24 nM
Cn1cc(-c2ccc3c(c2)C(=O)N(C[C@]2(C#Cc4cccnc4)NC(=O)NC2=O)C3)cn1 [Compound 310] | 501 | 
COc1ccc2c(c1)C(=O)N(C[C@@]1(C#Cc3ccc(-c4cnccc4C)nc3)NC(=O)NC1=O)C2 [Compound 1100] | 0.52 | 
COc1ccc2c(c1)C(=O)N(C[C@@]1(C#Cc3cc(F)c4c(O)n[nH]c4c3)NC(=O)NC1=O)C2 [Compound 302] | 0.0521 | 
COc1ccc2c(c1F)C(=O)N(C[C@@]1(C#Cc3ccc(-c4nc(-c5cnn(C)c5)ccc4O)c(F)c3)NC(=O)NC1=O)C2 [Compound 987] | 0.0627 | 
COc1ccc2c(c1)C(=O)N(C[C@@]1(C#Cc3nc(N4CC[C@H](O)C4=O)ccc3OC)NC(=O)NC1=O)C2 [Compound 1504] |  | Ki: 0.98 nM
COc1ccc2c(c1)C(=O)N(C[C@@]1(C#Cc3ccc4c(CN(C)C)n[nH]c4c3)NC(=O)NC1=O)C2 [Compound 728] | 0.325 | 
COc1ccc2c(c1)C(=O)N(C[C@@]1(C#Cc3csc(C4(C)NC(=O)NC4=O)c3)NC(=O)NC1=O)C2 (some centres unmarked) [Compound 908] |  | Ki (TACE): 0.42 nM
CCN1CCN(c2cccc(-c3ccc(C#C[C@]4(CN5Cc6ccc(OC)c(F)c6C5=O)NC(=O)NC4=O)cc3)n2)CC1 [Compound 991] | 0.28 | 
COc1ccc2c(c1)C(=O)N(C[C@@]1(C#Cc3ccc(C(C)(C)C(N)=O)cc3)NC(=O)NC1=O)C2 [Compound 2262] |  | Ki (TACE): 0.24 nM
COc1ccc2c(c1)C(=O)N(C[C@]1(C#Cc3cncc(C(=O)NN)c3)NC(=O)NC1=O)C2 [Compound 2256] |  | Ki (TACE): 32.6 nM
COc1ccc2c(c1)C(=O)N(C[C@@]1(C#Cc3ccc(C(=NO)N4CCNC[C@@H]4C)cc3)NC(=O)NC1=O)C2 [Compound 2293] |  | Ki: 0.43 nM

SMILES | Ki [1] [nM] | other results
COc1ccc2c(c1F)C(=O)N(C[C@@]1(C#Cc3ccc(-c4cccc(N5CCOCC5)n4)cc3)NC(=O)NC1=O)C2 [Compound 995] | 0.512 | 
CCN1CCN(Cc2ccc(C#C[C@]3(CN4Cc5ccc(OC)cc5C4=O)NC(=O)NC3=O)cc2)CC1 [Compound 933] |  | Ki (TACE): 0.29 nM
COc1ccc2c(c1)C(=O)N(C[C@@]1(C#Cc3ccc4c(O)n[nH]c4c3)NC(=O)NC1=O)C2 [Compound 748] | 0.237 | 
CCN1CCN(C(=O)c2ccc(C#C[C@]3(CN4Cc5ccc(OC)c(F)c5C4=O)NC(=O)NC3=O)cc2)CC1 [Compound 964] | 0.288 | 
COc1ccc2c(c1)C(=O)N(C[C@@]1(C#Cc3ccc(-c4ccc(C)nc4O)nc3)NC(=O)NC1=O)C2 [Compound 1301] | 0.27 | 
COc1ccc2c(c1)C(=O)N(C[C@@]1(C#Cc3ccc(-c4ccccc4O)cc3)NC(=O)NC1=O)C2 [Compound 955] |  | Ki (TACE): 0.313 nM
CCN1CCN(C(CO)c2ccc(C#C[C@]3(CN4Cc5ccc(OC)cc5C4=O)NC(=O)NC3=O)cc2)CC1 (some centres unmarked) [Compound 930] |  | Ki (TACE): 0.32 nM
COc1ccc2c(c1F)C(=O)N(C[C@@]1(C#Cc3ccc(-c4nc(N5CCC(=O)CC5)ccc4O)cc3)NC(=O)NC1=O)C2 [Compound 1003] | 0.0826 | 
COc1ccc2c(c1)C(=O)N(C[C@@]1(C#Cc3ccc(-c4noc(C)n4)cc3)NC(=O)NC1=O)C2 [Compound 2253] |  | Ki (TACE): 0.27 nM
COc1ccc2c(c1)C(=O)N(C[C@@]1(C#Cc3ccc(C(=NO)N4[C@H](C)CNC[C@@H]4C)cc3)NC(=O)NC1=O)C2 [Compound 2294] |  | Ki: 0.68 nM
COc1ccc2c(c1)C(=O)N(C[C@@]1(C#Cc3ccc(C(=NO)N4CCN(C5CCCCC5)CC4)cc3)NC(=O)NC1=O)C2 [Compound 926] |  | Ki: 0.11 nM
COc1ccc2c(c1)C(=O)N(C[C@@]1(C#Cc3ccc(C(=NO)N4CCC4)cc3)NC(=O)NC1=O)C2 [Compound 914] |  | Ki (TACE): 0.27 nM
COc1ccc2c(c1)C(=O)N(CC1(C#Cc3cnc(N4CCC5(CC4)NC(=O)NC5=O)nc3N)NC(=O)NC1=O)C2 (centres unmarked) [Compound 2310] |  | Ki (TACE): 1.1 nM
CCN1CCN(C(=O)c2ccc(C#C[C@]3(CN4Cc5ccc(OC)cc5C4=O)NC(=O)NC3=O)cc2)CC1 [Compound 960] | 0.364 | 
COc1ccc2c(c1F)C(=O)N(C[C@@]1(C#Cc3ccc(CN4CCN(C5CCCCC5)CC4)cc3)NC(=O)NC1=O)C2 [Compound 982] | 0.36 | 
COc1ccc2c(c1)C(=O)N(C[C@@]1(C#Cc3ccc(-c4c(C)nn(C)c4C)nc3)NC(=O)NC1=O)C2 [Compound 2268] |  | Ki (TACE): 0.21 nM
COc1ccc2c(c1F)C(=O)N(C[C@@]1(C#Cc3ccc(/C(=N/O)N4CCNC[C@@H]4C)c(F)c3)NC(=O)NC1=O)C2 [Compound 1309] |  | Ki: 0.19 nM
COc1ccc2c(c1)C(=O)N(C[C@@]1(C#Cc3ccc(-c4ccccc4O)cc3)NC(=O)NC1=O)C2 [Compound 969] | 0.313 | 
COc1ccc2c(c1)C(=O)N(C[C@@]1(C#Cc3ccc(NCCN(C)C)nc3)NC(=O)NC1=O)C2 [Compound 2289] |  | Ki (TACE): 0.43 nM
COc1ccc2c(c1)C(=O)N(C[C@@]1(C#Cc3ccc(C(=NO)C4CCN(C)CC4)cc3)NC(=O)NC1=O)C2 [Compound 2246] |  | Ki: 0.28 nM
COc1ccc2c(c1)C(=O)N(C[C@@]1(C#Cc3ccc4c(-c5ccncc5)n[nH]c4c3)NC(=O)NC1=O)C2 [Compound 734] | 0.444 | 

Continued, in another order:

Ki [1] [nM] | SMILES | other results
0.24 | COc1ccc2c(c1)C(=O)N(C[C@@]1(C#Cc3ccc(N4C(=O)CCC4C(=O)N4CCN(C)CC4)cc3)NC(=O)NC1=O)C2 (some centres unmarked) [Compound 1905] | 
0.52 | COc1ccc2c(c1)C(=O)N(C[C@@]1(C#Cc3cnc(C)nc3O)NC(=O)NC1=O)C2 [Compound 2231] | 
0.2 | COc1ccc2c(c1)C(=O)N(C[C@@]1(C#Cc3ccc(-c4nnc[nH]4)cc3OC)NC(=O)NC1=O)C2 [Compound 2223] | 
0.9 | COc1ccc2c(c1)C(=O)N(C[C@@]1(C#Cc3nc(-c4ccc(S(=O)(=O)NC5CC5)cc4)ccc3OC)NC(=O)NC1=O)C2 [Compound 1512] | 
0.13 | CCN1CCN(C(=O)C2CCC(=O)N2c2ccc(C#C[C@]3(CN4Cc5ccc(OC)cc5C4=O)NC(=O)NC3=O)cc2)CC1 (some centres unmarked) [Compound 1901] | 
1.37 | COc1ccc2c(c1)C(=O)N(C[C@@]1(C#Cc3nc(N4CCN(c5ccncc5)CC4)ccc3OC)NC(=O)NC1=O)C2 [Compound 2205] | 
0.373 | COc1ccc2c(c1)C(=O)N(C[C@@]1(C#Cc3cncc(-c4ccc(C(N)=O)o4)c3)NC(=O)NC1=O)C2 [Compound 2213] | 
0.56 | COc1ccc2c(c1)C(=O)N(C[C@@]1(C#Cc3cnc4nc(O)oc4c3)NC(=O)NC1=O)C2 [Compound 2244] | 
0.15 | COc1ccc2c(c1)C(=O)N(C[C@@]1(C#Cc3cc(C(N)=O)ccc3C)NC(=O)NC1=O)C2 [Compound 2220] | 
0.2 | COc1ccc2c(c1F)C(=O)N(C[C@@]1(C#Cc3cc(F)cnc3Cl)NC(=O)NC1=O)C2 [Compound 1312] | 
0.62 | COc1ccc2c(c1)C(=O)N(C[C@@]1(C#Cc3nc(-c4ccc(N5CCNCC5)nc4)ccc3OC)NC(=O)NC1=O)C2 [Compound 1511] | 
0.22 | COc1ccc2c(c1F)C(=O)N(C[C@@]1(C#Cc3ccc4c(c3)CCC43NC(=O)NC3=O)NC(=O)NC1=O)C2 (some centres unmarked) [Compound 2214] | 
0.38 | COc1ccc2c(c1F)C(=O)N(C[C@@]1(C#Cc3ccc(N4C(=O)CCC4C(=O)NC4CC4)cc3)NC(=O)NC1=O)C2 (some centres unmarked) [Compound 1904] | 
0.15 | COc1ccc2c(c1)C(=O)N(C[C@@]1(C#Cc3cncc(-c4csc(N)n4)c3)NC(=O)NC1=O)C2 [Compound 2233] | 
0.21 | COc1ccc2c(c1)C(=O)N(C[C@@]1(C#Cc3cnc4ccccc4c3CO)NC(=O)NC1=O)C2 [Compound 2219] | 
1.77 | COCCN1CCN(c2ccc(OC)c(C#C[C@]3(CN4Cc5ccc(OC)cc5C4=O)NC(=O)NC3=O)n2)CC1 [Compound 1507] | 
0.35 | COc1ccc2c(c1)C(=O)N(C[C@@]1(C#Cc3cncc(NC(=O)C4CCN(C)CC4)c3)NC(=O)NC1=O)C2 [Compound 1908] | 
0.3 | COc1ccc2c(c1)C(=O)N(C[C@@]1(C#Cc3ccc(-n4c(C)n[nH]c4=O)cc3)NC(=O)NC1=O)C2 [Compound 1915] | 
0.6 | COc1ccc2c(c1)C(=O)N(C[C@@]1(C#Cc3ccc(-n4cn[nH]c4=O)cc3)NC(=O)NC1=O)C2 [Compound 1914] | 
0.19 | COc1ccc2c(c1)C(=O)N(C[C@@]1(C#Cc3ccc([C@@]4(CN5Cc6ccc(OC)cc6C5=O)NC(=O)NC4=O)cc3)NC(=O)NC1=O)C2 [Compound 2217] | 
0.27 | CCN1CCN(C(=NO)c2cnc(C#C[C@]3(CN4Cc5ccc(OC)cc5C4=O)NC(=O)NC3=O)c(OC)c2)CC1 [Compound 1923] | 
1.53 | COc1ccc2c(c1)C(=O)N(C[C@@]1(C#Cc3nc(N4C(=O)CCC4C)ccc3OC)NC(=O)NC1=O)C2 (some centres unmarked) [Compound 1506] | 
0.36 | COc1ccc2c(c1)C(=O)N(C[C@@]1(C#Cc3ccc(-c4c(C)n[nH]c4N)cc3)NC(=O)NC1=O)C2 [Compound 1303] | 
